Experimental data taken from patent US20240042019A1, “OPTIMIZED TLR7 LIGANDS AND USES THEREOF” (Genentech, Inc., priority 2021, published 2024).

Test: Particle size of RNA-poly-L-arginine complexes by Dynamic Light Scattering
Conditions: 10 minute incubation (FIG. 9)

In the case of “CACACACACACACACACACA [pCA, reference compound]”, the “Particle size (diameter) of RNA-poly-L-arginine complexes” value is reported as “behaved similarly”.
